Drawing on patent US20040009534A1 (DYAX, published 2004), this text covers Kd for 2 molecules.

By UniProt entry, the sequences of proteins in these tests, tags left out. Where a name states a change or a piece, a line headed by the entry shows the natural chain unless it says otherwise. Residues count along the entry.
UniProt P49065, 25-608 limits assumed: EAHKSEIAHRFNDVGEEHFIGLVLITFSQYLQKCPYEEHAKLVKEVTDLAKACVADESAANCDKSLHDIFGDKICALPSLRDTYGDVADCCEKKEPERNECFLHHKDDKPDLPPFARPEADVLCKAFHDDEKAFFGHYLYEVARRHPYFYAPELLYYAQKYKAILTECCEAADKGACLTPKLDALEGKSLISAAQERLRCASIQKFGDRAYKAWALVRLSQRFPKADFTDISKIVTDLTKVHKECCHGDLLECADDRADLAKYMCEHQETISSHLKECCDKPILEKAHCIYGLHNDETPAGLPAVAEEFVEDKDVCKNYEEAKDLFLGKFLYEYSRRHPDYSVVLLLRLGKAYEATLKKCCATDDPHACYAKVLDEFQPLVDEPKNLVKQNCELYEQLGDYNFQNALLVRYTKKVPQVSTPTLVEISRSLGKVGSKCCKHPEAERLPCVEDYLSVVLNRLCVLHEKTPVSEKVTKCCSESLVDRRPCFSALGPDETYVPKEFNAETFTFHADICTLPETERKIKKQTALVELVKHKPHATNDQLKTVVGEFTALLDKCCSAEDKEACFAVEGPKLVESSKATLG
UniProt P07724: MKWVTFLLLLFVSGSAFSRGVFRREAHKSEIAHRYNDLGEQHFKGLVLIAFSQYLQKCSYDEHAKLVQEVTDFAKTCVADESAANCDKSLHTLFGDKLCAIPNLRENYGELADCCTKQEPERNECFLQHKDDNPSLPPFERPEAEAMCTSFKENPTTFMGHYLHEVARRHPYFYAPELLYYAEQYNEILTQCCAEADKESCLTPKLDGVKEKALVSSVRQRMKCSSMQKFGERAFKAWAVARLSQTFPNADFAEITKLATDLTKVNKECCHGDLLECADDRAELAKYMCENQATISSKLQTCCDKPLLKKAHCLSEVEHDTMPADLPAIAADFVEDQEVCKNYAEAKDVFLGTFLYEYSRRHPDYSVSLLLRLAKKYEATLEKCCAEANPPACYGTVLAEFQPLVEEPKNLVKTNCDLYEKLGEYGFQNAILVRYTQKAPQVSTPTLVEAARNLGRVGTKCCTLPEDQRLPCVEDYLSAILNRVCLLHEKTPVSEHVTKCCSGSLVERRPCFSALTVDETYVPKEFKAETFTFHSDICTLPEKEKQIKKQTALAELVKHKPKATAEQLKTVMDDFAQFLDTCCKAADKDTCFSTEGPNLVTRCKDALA
UniProt Q28522, 17-600 limits assumed: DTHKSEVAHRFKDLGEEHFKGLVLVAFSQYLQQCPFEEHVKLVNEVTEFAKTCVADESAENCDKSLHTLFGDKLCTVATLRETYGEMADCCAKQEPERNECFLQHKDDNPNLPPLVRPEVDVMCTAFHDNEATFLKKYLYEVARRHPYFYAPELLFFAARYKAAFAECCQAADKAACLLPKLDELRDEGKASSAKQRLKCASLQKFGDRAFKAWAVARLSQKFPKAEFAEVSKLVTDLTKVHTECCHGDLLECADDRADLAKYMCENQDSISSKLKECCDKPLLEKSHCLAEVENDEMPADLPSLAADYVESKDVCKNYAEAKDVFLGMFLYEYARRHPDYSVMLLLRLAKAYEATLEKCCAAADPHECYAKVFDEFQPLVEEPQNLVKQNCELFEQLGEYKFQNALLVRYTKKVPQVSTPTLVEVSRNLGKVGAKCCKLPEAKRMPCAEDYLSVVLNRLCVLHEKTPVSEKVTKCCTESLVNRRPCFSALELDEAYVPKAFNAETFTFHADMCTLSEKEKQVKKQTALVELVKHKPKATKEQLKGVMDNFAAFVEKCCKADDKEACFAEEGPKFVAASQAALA
UniProt P02769, 25-607 limits assumed: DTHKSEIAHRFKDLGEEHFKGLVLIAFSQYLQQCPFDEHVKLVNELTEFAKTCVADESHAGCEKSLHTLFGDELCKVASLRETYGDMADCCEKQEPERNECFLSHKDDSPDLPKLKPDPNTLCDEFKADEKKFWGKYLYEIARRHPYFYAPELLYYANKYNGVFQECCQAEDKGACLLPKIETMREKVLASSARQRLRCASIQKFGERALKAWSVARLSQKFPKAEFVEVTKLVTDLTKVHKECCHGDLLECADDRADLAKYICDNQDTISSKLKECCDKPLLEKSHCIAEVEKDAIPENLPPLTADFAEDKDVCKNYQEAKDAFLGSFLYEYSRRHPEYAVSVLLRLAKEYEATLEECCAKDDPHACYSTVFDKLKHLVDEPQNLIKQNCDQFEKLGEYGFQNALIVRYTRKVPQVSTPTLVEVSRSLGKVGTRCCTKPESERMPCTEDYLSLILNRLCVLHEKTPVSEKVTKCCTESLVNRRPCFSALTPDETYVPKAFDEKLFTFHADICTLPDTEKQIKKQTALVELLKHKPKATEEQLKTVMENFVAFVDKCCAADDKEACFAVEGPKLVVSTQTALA
UniProt P02770, 25-608 limits assumed: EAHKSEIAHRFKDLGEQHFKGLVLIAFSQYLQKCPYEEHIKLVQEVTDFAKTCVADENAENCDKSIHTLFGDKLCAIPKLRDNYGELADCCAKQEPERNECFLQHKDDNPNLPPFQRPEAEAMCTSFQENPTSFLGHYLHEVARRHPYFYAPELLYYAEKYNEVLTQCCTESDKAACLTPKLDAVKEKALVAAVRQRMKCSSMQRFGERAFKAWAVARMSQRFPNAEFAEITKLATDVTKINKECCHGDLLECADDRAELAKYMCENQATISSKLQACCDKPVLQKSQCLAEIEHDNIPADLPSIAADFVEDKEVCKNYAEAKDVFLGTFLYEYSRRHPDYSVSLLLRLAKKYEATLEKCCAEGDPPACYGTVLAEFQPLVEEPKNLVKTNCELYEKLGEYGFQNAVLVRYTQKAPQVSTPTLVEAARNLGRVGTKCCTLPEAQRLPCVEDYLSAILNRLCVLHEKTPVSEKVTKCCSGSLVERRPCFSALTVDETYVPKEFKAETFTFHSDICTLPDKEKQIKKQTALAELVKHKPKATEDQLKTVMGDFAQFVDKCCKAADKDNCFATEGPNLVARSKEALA
UniProt P02768, 25-609: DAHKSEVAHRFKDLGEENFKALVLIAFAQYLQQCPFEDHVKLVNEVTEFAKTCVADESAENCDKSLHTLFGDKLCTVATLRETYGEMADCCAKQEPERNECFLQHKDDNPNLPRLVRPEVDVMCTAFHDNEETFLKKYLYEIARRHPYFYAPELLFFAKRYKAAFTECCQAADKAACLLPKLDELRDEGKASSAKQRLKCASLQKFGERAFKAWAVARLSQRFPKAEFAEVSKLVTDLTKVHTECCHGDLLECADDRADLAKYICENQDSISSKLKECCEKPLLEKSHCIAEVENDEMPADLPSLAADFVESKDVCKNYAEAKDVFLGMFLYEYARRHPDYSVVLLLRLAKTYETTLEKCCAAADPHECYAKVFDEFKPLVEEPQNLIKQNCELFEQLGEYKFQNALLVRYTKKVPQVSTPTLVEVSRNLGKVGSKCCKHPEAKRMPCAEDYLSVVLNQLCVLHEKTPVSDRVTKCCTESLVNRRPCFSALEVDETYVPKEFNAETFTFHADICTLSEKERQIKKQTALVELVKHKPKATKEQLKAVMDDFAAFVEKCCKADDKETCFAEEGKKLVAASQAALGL
UniProt P08835, 25-607 limits assumed: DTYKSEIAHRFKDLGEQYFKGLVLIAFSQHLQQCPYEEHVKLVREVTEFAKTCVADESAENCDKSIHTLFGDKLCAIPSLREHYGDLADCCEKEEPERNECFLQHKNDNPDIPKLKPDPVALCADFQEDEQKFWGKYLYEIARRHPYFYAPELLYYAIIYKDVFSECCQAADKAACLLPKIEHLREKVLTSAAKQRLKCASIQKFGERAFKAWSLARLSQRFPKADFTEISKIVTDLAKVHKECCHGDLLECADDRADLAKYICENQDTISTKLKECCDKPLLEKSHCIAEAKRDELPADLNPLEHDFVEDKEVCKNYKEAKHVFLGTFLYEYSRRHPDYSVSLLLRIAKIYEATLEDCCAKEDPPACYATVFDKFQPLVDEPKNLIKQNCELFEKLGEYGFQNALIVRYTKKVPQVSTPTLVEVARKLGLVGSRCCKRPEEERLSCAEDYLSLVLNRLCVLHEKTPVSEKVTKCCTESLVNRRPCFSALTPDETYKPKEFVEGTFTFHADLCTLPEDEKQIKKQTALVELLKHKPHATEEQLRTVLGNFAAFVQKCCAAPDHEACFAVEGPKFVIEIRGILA

Assay [1] has as its target T1, rabbit serum albumin (Rabbit, UniProt P49065 25-608). The assay can be described thus: labeled peptide, KD; 3 mM phosphate, pH 6.2, 0 M NaCl; labeled peptide in solution; 3 mM phosphate, pH 6.2, 0 M NaCl.
Assay [2] has as its target T2, murine serum albumin (Mouse, UniProt P07724 25-608).
T2 construct: also called MSA; mouse serum albumin
Briefly: labeled peptide, KD; 3 mM phosphate, pH 6.2, 0 M NaCl.

Assay [3] addresses T3, Rhesus serum albumin (Rhesus, UniProt Q28522 17-600). Described as above.
The target in assay [4] is T4, bovine serum albumin (Bovine, UniProt P02769 25-607).
T4 construct: also called BSA
The assay is described as above.

Assay [5] deals with T5, rat serum albumin (Rat, UniProt P02770 25-608). The description is as above.
The target of assay [6] is T6, human serum albumin (human, UniProt P02768 25-609).
T6 construct: also called HSA
The assay is described as above.

Assay [7] addresses T2, murine serum albumin. Briefly: labeled peptide, KD; PBS, pH 7.4, 0.14 M NaCl.
For assay [8], the target named is T1, rabbit serum albumin. The assay can be described thus: labeled peptide, KD; PBS, pH 7.4, 0.14 M NaCl.
The target in assay [9] is T3, Rhesus serum albumin. The assay can be described thus: labeled peptide, KD; PBS, pH 7.4, 0.14 M NaCl.
In assay [10] the target is T4, bovine serum albumin. Briefly: labeled peptide, KD; PBS, pH 7.4, 0.14 M NaCl.
For assay [11], the target named is T5, rat serum albumin. The assay can be described thus: labeled peptide, KD; PBS, pH 7.4, 0.14 M NaCl.
Assay [12] concerns the target T6, human serum albumin. Briefly: labeled peptide, KD; PBS, pH 7.4, 0.14 M NaCl.
The target of assay [13] is pig serum albumin (Pig, UniProt P08835 25-607). Briefly: labeled peptide, KD; PBS, pH 7.4, 0.14 M NaCl.

B1: DX-321 (peptide)
peptide: AEGTGDRNMCKFSWIRSPAFCARADPE
modifications: labeled (label not named in Example 4) for the KD determinations; coupled via a C-terminal lysine to NHS-Sepharose for the column tests
For B1, binding in assay [1] was put at a Kd of 32 µM.

B2: DX-236 (peptide)
peptide: AEGTGDFWFCDRIAWYPQHLCEFLDPEGGGK
modifications: labeled (label not named in Example 4) for the KD determinations; coupled via a C-terminal lysine to NHS-Sepharose for the column tests
notes: Cyclic (disulfide) phage-display peptide
Consider B2, for which the equilibrium dissociation constant (Kd) in assay [2] turned out to be 5.5 µM; in assay [3] it was 1100 nM; in assay [4], 1100 nM; in [5], 1600 nM; in assay [6] it was 1900 nM; in assay [7], 32 µM. For the same molecule, the dissociation constant Kd in [8] is 18 µM; in assay [9], 23 µM; in [10] it was 13.3 µM; in assay [11], 25 µM; in [12], 11 µM; in assay [13], 12 µM.

In general, Kd refers to the free concentration of one partner at which half of the binding sites on the other are occupied at equilibrium, for simple one-to-one binding.
